Earlier results, collected in article PMC11361989, “A simple HPLC–MS/MS method for the determination of polymyxin B in human plasma and its application in the pharmacokinetic study in elderly patients infected with multidrug-resistant Gram-negative bacteria” (Frontiers in Pharmacology, 2024).

Conditions: ref Matar and Al-Refai, 2020; cited from earlier work

Substance: colistin B
- Stability when stored at 25°C for 6 h: cannot be stable
